{
  "source": "patent US20250090564A1",
  "assay": "In vitro digestion of blackcurrant juice concentrate (pepsin/acid, bile salts/pancreatin), LCMS",
  "assay_type": "in vitro ADME",
  "conditions": "esters: steps 3 through 5; sarmentosin: steps 3 and 4; FIGS. 32 and 33",
  "description": "Samples were taken at the end of 1st step and at 30 min intervals in the 2nd step to give 6 samples for analysis. The samples will be examined (LCMS) for the level of sarmentosin and sarmentosin esters and compared with the feed material. The two samples were treated as shown below in Table 17 to replicate digestion. [table] Samples taken from the subsequent treatments were stored frozen until required for analysis. The samples were all a similar volume and concentration of original juice. Analysis was performed using LCMS (method described in the earlier work). Samples were prepared in two ways, 1. addition of methanol to precipitate any protein or 2. Direct sampling of neat solution after centrifugation.",
  "data": [
    {"substance": "nigrumin ferulate", "values": [
      {"measurement": "concentration after in vitro digestion steps", "result": "decrease"}
    ]}
  ]
}
